The target in assay [1] is recombinant Stat3 (binding to EGFR Y1068 phosphododecapeptide) (Homo sapiens, UniProt P40763). The assay can be described thus: Stat3 SH2/pY-peptide SPR binding inhibition assay. The settings on record: Stat3 500 nM, immobilized EGFR Y1068 phosphododecapeptide; read-out: SPR IC50 (competition with pY-peptide for binding to Stat3). The method, then:
Binding of recombinant Stat3 (500 nM) to a BiaCore sensor chip coated with a phosphododecapeptide based on the amino acid sequence surrounding Y1068 within the EGFR was measured in real time by SPR (Response Units) in the absence (0 μM) or presence of increasing concentrations (0.1 to 1,000 μM) of Cpd3 (panel A), Cpd30 (panel B), Cpd188 (panel C), Cpd3-2 (panel D), Cpd3-7 (panel E) and Cpd30-12 (panel F). Data shown are representative of 2 or more experiments. The equilibrium binding levels obtained in the absence or presence of compounds were normalized (response obtained in the presence of compound÷the response obtained in the absence of compound×100), plotted against the log concentration (nM) of the compounds (panel G). The experimental points fit to a competitive binding curve that uses a four-parameter logistic equation (see exemplary methods for details). These curves were used to calculate IC50 (Table 1).
Stat3 SH2/pY-peptide binding assay. Stat3 binding assays were performed at 25° C. with a BIAcore 3000 biosensor using 20 mM Tris buffer pH 8 containing 2 mM mercaptoethanol and 5% DMSO as the running buffer (Kim et al., 2005). Phosphorylated and control non-phosphorylated biotinylated EGFR derived dodecapeptides based on the sequence surrounding Y1068 (Shao et al., 2004) were immobilized on a streptavidin coated sensor chip (BIAcore inc., Picataway N.J.). The binding of Stat3 was conducted in 20 mM Tris buffer pH 8 containing 2 mM β-mercaptoethanol at a flow rate of 10 uL/min for 1-2 minute. […] IC50 values were determined by plotting % maximum response as a function of log concentration of compound and fitting the experimental points to a competitive binding model using a four parameter logistic equation: R=Rhigh−(Rhigh−Rlow)/(1+conc/A1)^A2, where R=percent response at inhibitor concentration, Rhigh=percent response with no compound, Rlow=percent response at highest compound concentration, A2=fitting parameter (slope) and A1=IC50 (BIAevaluation Software version 4.1). […]

Amino acid sequences for entries named in this document (tags omitted). Residues count along the entry.
UniProt P40763, whole entry, species assumed: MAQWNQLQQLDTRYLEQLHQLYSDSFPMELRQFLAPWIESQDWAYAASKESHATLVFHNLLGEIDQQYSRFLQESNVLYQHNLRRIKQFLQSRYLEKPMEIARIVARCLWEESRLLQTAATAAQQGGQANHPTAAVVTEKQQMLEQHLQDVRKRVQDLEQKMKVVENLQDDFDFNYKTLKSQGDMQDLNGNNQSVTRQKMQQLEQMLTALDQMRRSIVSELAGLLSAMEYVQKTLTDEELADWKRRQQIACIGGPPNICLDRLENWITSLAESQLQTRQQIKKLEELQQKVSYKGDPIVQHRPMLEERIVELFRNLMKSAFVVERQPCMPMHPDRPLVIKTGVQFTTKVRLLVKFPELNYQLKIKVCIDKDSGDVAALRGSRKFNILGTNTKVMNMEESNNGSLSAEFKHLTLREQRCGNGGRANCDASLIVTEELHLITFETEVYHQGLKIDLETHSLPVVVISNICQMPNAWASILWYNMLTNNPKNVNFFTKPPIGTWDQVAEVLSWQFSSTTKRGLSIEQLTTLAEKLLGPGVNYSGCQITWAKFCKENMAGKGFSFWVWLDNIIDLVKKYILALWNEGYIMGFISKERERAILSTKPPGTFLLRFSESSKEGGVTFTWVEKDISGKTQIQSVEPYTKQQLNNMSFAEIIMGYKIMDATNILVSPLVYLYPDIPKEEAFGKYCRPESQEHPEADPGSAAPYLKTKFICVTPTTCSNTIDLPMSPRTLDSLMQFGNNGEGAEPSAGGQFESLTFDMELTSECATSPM
UniProt P40763, 2-770 limits assumed: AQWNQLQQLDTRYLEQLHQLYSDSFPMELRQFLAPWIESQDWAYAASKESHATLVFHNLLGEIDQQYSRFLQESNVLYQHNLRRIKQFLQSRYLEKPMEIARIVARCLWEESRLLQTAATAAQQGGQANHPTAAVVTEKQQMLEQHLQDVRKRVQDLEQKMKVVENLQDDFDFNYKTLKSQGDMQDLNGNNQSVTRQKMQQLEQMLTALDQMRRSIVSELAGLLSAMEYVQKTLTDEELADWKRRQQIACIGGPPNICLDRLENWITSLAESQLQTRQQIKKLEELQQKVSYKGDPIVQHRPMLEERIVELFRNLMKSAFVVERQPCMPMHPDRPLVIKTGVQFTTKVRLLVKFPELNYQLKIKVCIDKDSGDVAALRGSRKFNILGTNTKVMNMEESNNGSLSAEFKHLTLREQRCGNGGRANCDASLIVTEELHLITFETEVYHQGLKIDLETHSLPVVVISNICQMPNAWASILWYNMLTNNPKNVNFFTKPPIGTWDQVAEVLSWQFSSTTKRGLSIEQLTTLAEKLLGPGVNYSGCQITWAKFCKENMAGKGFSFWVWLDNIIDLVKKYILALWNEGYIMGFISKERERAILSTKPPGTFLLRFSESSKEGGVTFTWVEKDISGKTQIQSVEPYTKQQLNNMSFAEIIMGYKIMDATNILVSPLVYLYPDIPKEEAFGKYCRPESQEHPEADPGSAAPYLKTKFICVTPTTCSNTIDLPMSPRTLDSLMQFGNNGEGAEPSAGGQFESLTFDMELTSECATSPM

For another assay, the target named is T1, Stat3:hSIE complex (Homo sapiens, UniProt P40763).
T1 construct: endogenous in cells; host or cells: HepG2
Put plainly: Electrophoretic mobility shift assay (Stat3 DNA binding, hSIE probe). The class given is biochemical. Conditions: extracts of IL-6-stimulated HepG2 cells, compound 300 μM. As to the method:
Electrophoretic mobility shift assays were performed using whole-cell extracts prepared from HepG2 cells without and with stimulation with IL-6 (30 ng/ml) for 30 min. Protein (20 μg) was incubated with radiolabeled duplex oligonucleotide (hSIE) and DMSO without or with the indicated compounds (300 uM) for 60 minutes at 37° C. then separated by PAGE. The gel was dried and autoradiographed; the portion of the gel corresponding to the Stat3-bound hSIE band is shown. Data shown are representative of 2 studies.
Electrophoretic Mobility Shift Assay (EMSA): EMSA was performed using the hSIE radiolabeled duplex oligonucleotide as a probe as described (Tweardy et al., 1995). Briefly, high salt extracts were prepared from HepG2 cells incubated without or with IL-6 (30 ng/ml) for 30 minutes. Protein concentration was determined by Bradford Assay and 20 ug of extract was incubated with compound (300 uM) for 60 minutes at 37° C. […] Gels were dried and autoradiographed.
Once in the nucleus, Stat3 dimers bind to specific DNA elements to activate and, in some instances, repress gene transcription. […] Compounds that bind to the phosphopeptide-binding site of Stat3 might be expected to do the same. […]
In general terms: In EMSA bound probe runs differently from free probe, usually more slowly.

The values that follow come from patent publication US10112933B2, “Methods and compositions for treatment of fibrosis” (Baylor College of Medicine, priority 2013, dated 2018).

pIC50: −log10 of the molar value.

In general, pIC50 refers to the negative decadic logarithm of the IC50, by convention in mol/L.

Take `O=C(O)CSc1cc(NS(=O)(=O)c2ccc(C(=O)O)cc2)c2ccccc2c1O` [Cpd188, 4-[({3-[(carboxymethyl)thio]-4-hydroxy-1-naphthyl}amino)sulfonyl]benzoic acid]: the pIC50 in assay [1] was 4.70.

In the case of `CCN1C(=O)C(=Cc2ccc(-c3ccc(C(=O)O)cc3)o2)SC1=S` [Cpd30, 4{5-[(3-ethyl-4-oxo-2-thioxo-1,3-thiazolidin-5-ylidene)methyl]-2-furyl}benzoic acid], in assay [1], the pIC50 is 4.52.

For `COC(=O)Cc1c(C)c2ccc(OCc3ccc(C(=O)OC)cc3)c(C)c2oc1=O` [Cpd3-7, methyl 4-({[3-(2-methyoxy-2-oxoethyl)-4,8-dimethyl-2-oxo-2H-chromen-7-yl]oxy}methyl)benzoate], the pIC50 in assay [1] was 3.86. For the same compound, the “amount of hSIE shifted (Stat3:hSIE band intensity)” value on Stat3:hSIE complex is listed as “reduced the amount of hSIE shifted by half or greater”.
